The record followed here is patent publication US20250215029A1 (Recludix Pharma, Inc., priority 2022, published 2025).

The chains behind the UniProt entries cited, without tags or fusion partners. Residues count along the entry.
UniProt P40763, 127-722 limits assumed: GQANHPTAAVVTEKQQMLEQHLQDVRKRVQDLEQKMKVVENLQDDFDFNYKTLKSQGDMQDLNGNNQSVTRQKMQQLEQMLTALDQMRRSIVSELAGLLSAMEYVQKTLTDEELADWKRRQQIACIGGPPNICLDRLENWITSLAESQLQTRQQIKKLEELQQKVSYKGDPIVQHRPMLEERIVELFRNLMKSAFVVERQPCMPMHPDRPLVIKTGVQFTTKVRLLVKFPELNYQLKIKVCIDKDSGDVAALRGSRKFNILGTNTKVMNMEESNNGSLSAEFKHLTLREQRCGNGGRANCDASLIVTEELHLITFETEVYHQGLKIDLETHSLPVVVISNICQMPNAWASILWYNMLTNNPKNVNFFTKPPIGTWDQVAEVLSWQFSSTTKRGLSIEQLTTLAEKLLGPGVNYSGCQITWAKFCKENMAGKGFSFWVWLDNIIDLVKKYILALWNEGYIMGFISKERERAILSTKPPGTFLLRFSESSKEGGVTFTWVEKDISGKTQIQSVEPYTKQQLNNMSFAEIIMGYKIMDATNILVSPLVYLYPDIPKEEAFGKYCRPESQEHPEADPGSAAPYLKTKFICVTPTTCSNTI
UniProt P42226, 123-658 limits assumed: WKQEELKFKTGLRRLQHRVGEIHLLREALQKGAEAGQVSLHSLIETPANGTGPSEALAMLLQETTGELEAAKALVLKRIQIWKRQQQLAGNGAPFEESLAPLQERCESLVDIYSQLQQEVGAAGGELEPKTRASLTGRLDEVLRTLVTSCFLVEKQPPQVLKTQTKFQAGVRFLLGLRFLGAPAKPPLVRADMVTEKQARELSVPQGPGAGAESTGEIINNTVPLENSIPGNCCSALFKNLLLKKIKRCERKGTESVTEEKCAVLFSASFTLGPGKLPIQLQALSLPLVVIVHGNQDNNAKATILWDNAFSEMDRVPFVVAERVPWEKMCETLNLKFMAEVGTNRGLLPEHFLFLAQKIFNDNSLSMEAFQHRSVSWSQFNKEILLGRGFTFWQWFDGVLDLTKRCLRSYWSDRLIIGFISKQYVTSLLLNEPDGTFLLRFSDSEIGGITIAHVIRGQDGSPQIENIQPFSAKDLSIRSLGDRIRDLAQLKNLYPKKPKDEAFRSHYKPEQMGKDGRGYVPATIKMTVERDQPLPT

Experiment [1] concerns the target Recombinant STAT3 protein (STAT3 (G127-I722)) (Homo sapiens, UniProt P40763). Put plainly: STAT3 Fluorescence Polarization (FP) Assay. The following applies: probe 5-FAM-GpYLPQTV-NH2 2 nM, 45-minute incubation.
Experiment [2] concerns the target Recombinant STAT6 protein (STAT6 (W123-T658)) (Homo sapiens, UniProt P42226). Put plainly: STAT6 Fluorescence Polarization (FP) Assay. The following applies: probe 5-FAM-ApYKPFQDLI-NH2 2 nM, 45-minute incubation. (In general: Polarisation of emitted light reports the rotation of a fluorescent probe.)
[3] abbreviates: read-out: STAT3 (FP assay IC50 class), STAT3 (G127-I722) 25 nM.
The mark [4] stands for this setting: read-out: STAT6 (FP assay IC50 class), STAT6 (W123-T658) 250 nM.
Where [5] appears, read: read-out: STAT3 (FP assay IC50), STAT3 25 nM.
Where [6] appears, read: read-out: STAT6 (FP assay IC50), STAT6 250 nM.

Like-named read-outs stand apart in the source and are kept apart here.

Usually IC50 stands for the concentration at which inhibition is half-maximal. Take `C/C1=C/C[C@H](NC(=O)c2ccc3ccc(CP(=O)(O)O)cc3c2)C(=O)N2[C@H](CC[C@H]2C(=O)N2CC(c3ccccc3)CC23CC3)C1` (stereo partly shown): the 50% inhibitory concentration (IC50) in experiment [1] (setting [3]) lay in the range of 1000 to 10000 nM; in experiment [2] (setting [4]) it was 300 to 3000 nM.
With `Cn1cnnc1C1(F)CN(C(=O)[C@@H]2CC[C@@H]3CCC[C@H](NC(=O)c4cc5cc(C(F)(F)P(=O)(O)O)ccc5s4)C(=O)N32)C1`, the figures for the IC50 in experiment [1] (setting [3]) and in experiment [2] (setting [4]) were 100 to 1000 nM and 300 to 3000 nM, respectively.
Consider `N#CC1CN(C(=O)[C@@H]2CC[C@@H]3CCCC[C@H](NC(=O)c4ccc5ccc(C(F)(F)P(=O)(O)O)cc5c4)C(=O)N32)CC12C(=O)Nc1ccccc12` (single isomer, unassigned), for which the concentration for half-maximal inhibition (IC50) was below 100 nM in experiment [1] (setting [5]) and below 300 nM in experiment [2] (setting [6]).
Take `Cn1ccc(C2CCN(C(=O)[C@@H]3CC[C@@H]4CCCC[C@H](NC(=O)c5cc6cc(C(F)P(=O)(O)O)ccc6s5)C(=O)N43)C2)cc1=O` (stereo partly shown): the values for the half-maximal inhibitory concentration (IC50) in experiment [1] (setting [3]) and in experiment [2] (setting [4]) were 100 to 1000 nM and 300 to 3000 nM, respectively.
For `COCCOC1(c2cccnc2)CN(C(=O)[C@@H]2CC[C@@H]3CCCC[C@H](NC(=O)c4cc5cc(C(F)P(=O)(O)O)ccc5s4)C(=O)N32)C1` (stereo partly shown), in that order: below 100 nM and 3000 to 30000 nM.
As for `CC1C[C@H]2CC[C@@H](C(=O)N3CC(c4cccnc4)C3)N2C(=O)[C@@H](NC(=O)c2cc3cc(C(F)(F)P(=O)(O)O)ccc3s2)C1` (single isomer, unassigned), the figures for the half-maximal inhibitory concentration (IC50) in experiment [1] (setting [5]) and in experiment [2] (setting [6]) were below 100 nM and 3000 to 30000 nM, respectively.
As to `COC1CN(c2ccncc2C2CN(C(=O)[C@@H]3CC[C@@H]4CCC[C@H](NC(=O)c5cc6cc([C@H](F)P(=O)(O)O)ccc6s5)C(=O)N43)C2)C1`, the results for the half-inhibitory concentration (IC50) in experiment [1] (setting [3]) and in experiment [2] (setting [4]) were below 100 nM and 300 to 3000 nM, respectively.
The matching figures for `COc1nccc(F)c1C1CN(C(=O)[C@@H]2CC[C@@H]3CCC[C@H](NC(=O)c4cc5cc(CP(=O)(O)O)ccc5s4)C(=O)N32)C1`: 1000 to 10000 nM and 3000 to 30000 nM.
For the compound `O=C(N[C@H]1CCC[C@H]2CC[C@@H](C(=O)N3CC(c4cnccc4N4CC5CC(C4)O5)C3)N2C1=O)c1cc2cc(C(F)P(=O)(O)O)ccc2s1` (stereo partly shown), the IC50 in experiment [1] (setting [3]) is below 100 nM; in experiment [2] (setting [4]) it was 3000 to 30000 nM.
The matching figures for `N#Cc1ccncc1C1CN(C(=O)[C@@H]2CC[C@@H]3CCC[C@H](NC(=O)c4cc5cc(C(F)P(=O)(O)O)ccc5s4)C(=O)N32)C1` (stereo partly shown): 1000 to 10000 nM and 3000 to 30000 nM.
The matching figures for `O=C(N[C@H]1CCCC[C@H]2CC[C@@H](C(=O)N3CCc4cn[nH]c4C3)N2C1=O)c1cc2cc(C(F)(F)P(=O)(O)O)ccc2s1`: 1000 to 10000 nM and 300 to 3000 nM.
